These results are taken from US9643930B2, “Substituted indazole derivatives as in vitro MAO-B inhibitors” (“NTZ LAB” LTD., priority 2013, dated 2017).

By UniProt entry, the sequences of proteins in these tests, tags left out.
UniProt P21397, whole entry: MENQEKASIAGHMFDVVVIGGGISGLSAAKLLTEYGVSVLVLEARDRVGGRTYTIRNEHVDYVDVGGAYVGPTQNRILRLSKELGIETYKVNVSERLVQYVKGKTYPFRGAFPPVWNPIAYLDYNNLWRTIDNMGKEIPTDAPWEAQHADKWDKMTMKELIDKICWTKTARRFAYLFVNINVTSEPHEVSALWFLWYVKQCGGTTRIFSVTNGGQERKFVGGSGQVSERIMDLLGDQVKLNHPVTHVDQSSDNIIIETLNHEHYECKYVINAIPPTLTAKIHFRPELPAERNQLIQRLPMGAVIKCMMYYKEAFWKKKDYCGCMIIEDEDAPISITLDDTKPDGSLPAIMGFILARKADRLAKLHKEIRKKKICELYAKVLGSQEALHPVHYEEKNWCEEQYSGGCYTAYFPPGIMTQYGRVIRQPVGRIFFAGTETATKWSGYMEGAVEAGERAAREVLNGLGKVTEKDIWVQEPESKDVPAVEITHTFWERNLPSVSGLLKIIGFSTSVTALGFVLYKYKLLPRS

The target in this experiment is human MAO-A (Homo sapiens, UniProt P21397). Kind of experiment: Human MAO-A assay (recombinant enzyme, Amplex Red fluorescence).

With `Cn1ncc2cc(C(=O)Nc3ccc(F)c(Cl)c3)ccc21` [Example 17, N-(3-chloro-4-fluorophenyl)-1-methyl-1H-indazole-5-carboxamide], the IC50 is over 10 µM. In addition, the inhibition at 10 µM (read-out: human MAO-A % inhibition at 10 μM) stood at 53%.

As a reminder, the IC50 is the point on the concentration scale where inhibition reaches its midpoint. As a reminder, the inhibition is the change of the read-out against control, counted positive when it falls.
